# Values quoted from earlier work in patent US20090186081A1, “Disintegrating Loadable Tablets” (LifeCycle Pharma A/S, priority 2006, published 2009).
# Details: Table 1, Poorly-Soluble Drug Candidates
substance,measurement,value
Medroxyprogesterone,Solubility In Water,Insoluble
